## Yeast mating assay 1: variants of the scFv Ab-14

Binding partner: SARS-CoV-2 spike HR2 peptide, sequence PDVDLGDISGINAS.

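The library (AAYL50) carries one to three amino acid substitutions per variant, with no insertions or deletions. AlphaSeq pools MATa yeast showing the antibodies with MATalpha yeast showing the peptide. The frequency of each diploid, read from paired DNA barcodes, reflects how well the two displayed proteins bind. Each replicate has its own calibration line, from reference interactions of the BCL2 family. The assay was run in three technical replicates.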

Parent scFv Ab-14: VH joined to VL by a (GGGGS)3 linker. Changes lie in the light chain CDRs alone.
VH: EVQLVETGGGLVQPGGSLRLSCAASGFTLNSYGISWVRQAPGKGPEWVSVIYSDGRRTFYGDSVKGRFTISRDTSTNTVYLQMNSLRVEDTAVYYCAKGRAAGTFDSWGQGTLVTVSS
VL: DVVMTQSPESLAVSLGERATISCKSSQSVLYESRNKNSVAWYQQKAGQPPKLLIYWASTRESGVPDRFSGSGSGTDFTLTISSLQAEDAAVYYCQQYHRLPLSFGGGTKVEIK

Changes read parent residue, position, new residue, counted from the first residue of the VL shown. Kd is apparent (estimated from mating counts) and averaged on the log scale over replicates with a signal. Smaller is tighter. "no signal" marks a missing value. The strain was present, yet no cells mated with the target were sequenced in any replicate, which points to weak or no binding. As a blank, each scFv also met three strains without target: over library AAYL50, 18% of these pairings were detected, typically at 15 µM and seldom below 970 nM.

changes	Kd (apparent)	detected
K24I+S33T+S58A	360 nM	3/3
S26C+T59Q+S103G	180 nM	2/3
K24L+E32C+P101K	2.2 µM	1/3
N35Q+Y97E+H98E	no signal	0/3
V39N+Q96A+S103A	580 µM	3/3
S26N+S38R+A40V	1.7 mM	1/3
Y31H+A57I+T59Y	4.9 nM	3/3
V29P+A40P+R99F	no signal	0/3
S38P+E61M	120 nM	3/3
S33I+V39S+A40K	no signal	0/3
R34T+S38E+A40Q	no signal	0/3
Y31P+K36G+Q96L	69 nM	3/3
S25C+S28P+Q96R	no signal	0/3
K24D+Q96H	160 nM	3/3
S26N+S103M	no signal	0/3
S33L+T59G+E61G	no signal	0/3
S33Q+S62C+Q95C	3.6 µM	1/3
A57K+R60E+E61L	no signal	0/3
S25P+S62H+P101G	1.0 µM	2/3
Y31P+S33G+R34P	8.4 nM	3/3
S25V+R34I+A40M	no signal	0/3
S33T+N35G+K36E	4.3 nM	3/3
N35S+N37S+Q96S	380 nM	3/3
N37A+Q96D+R99E	810 nM	2/3
E32V+S33R+R60N	no signal	0/3
S33P+T59C+P101S	21 µM	2/3
N37L+Q95K+Q96C	660 nM	3/3
S28E+E32Q+S103Y	no signal	0/3
S26E+S33F+P101A	no signal	0/3
K24L+N35L+S103F	2.0 µM	1/3
S58D+E61N+L100E	360 nM	3/3
A40S+A57T+S103E	no signal	0/3
S26K+V29P+A40S	2.1 mM	1/3
S25P+R34F+S38C	3.6 µM	3/3
R34P+W56Y+L100N	no signal	0/3
E61H+S62W+Y97E	48 µM	1/3
L30N+N35F+Q95M	no signal	0/3
V39D+Q95C	no signal	0/3
S25M+L30G+S58R	3.0 nM	3/3
L30E+Y31H+Q95F	17 µM	1/3
S26K+E32P+S62T	630 nM	3/3
A57T+T59N+R99V	290 nM	3/3
S33N+A40M+S103A	no signal	0/3
S28F+R34V+Y97N	5.8 µM	2/3
S38T+A40F+L100Q	86 µM	2/3
E32V+P101N	230 nM	3/3
Y31L+N35Y+R60D	14 µM	1/3
S26N+R99Y	380 nM	3/3
L30A+E32D+S62Y	4.6 nM	3/3
S28Y+S103V	250 nM	3/3
S33E+W56L+A57M	160 nM	3/3
S25D+S62E+S103G	6.0 nM	3/3
Q27K+E61G+L102D	no signal	0/3
S38I+R60A+L102T	no signal	0/3
K36I+N37W+H98I	760 nM	2/3
R34D+N35I+S38W	4.7 µM	3/3
S26D+Q96L+R99T	11 nM	3/3
S25I+K36L+H98Y	11 nM	3/3
S58Q+Q96R	13 nM	3/3
W56A+R60M+R99V	19 nM	3/3
Q27T+E61V+S62A	3.7 nM	3/3
E61C+S103V	5.2 nM	3/3
S25W+Y31Q+K36F	4.5 nM	3/3
S33G+N37M+S103Q	no signal	0/3

Repeated from above, the 6 best binders with a signal in all replicates:

{"changes": "S25M+L30G+S58R", "Kd (apparent)": "3.0 nM", "detected": "3/3"}
{"changes": "Q27T+E61V+S62A", "Kd (apparent)": "3.7 nM", "detected": "3/3"}
{"changes": "S33T+N35G+K36E", "Kd (apparent)": "4.3 nM", "detected": "3/3"}
{"changes": "S25W+Y31Q+K36F", "Kd (apparent)": "4.5 nM", "detected": "3/3"}
{"changes": "L30A+E32D+S62Y", "Kd (apparent)": "4.6 nM", "detected": "3/3"}
{"changes": "Y31H+A57I+T59Y", "Kd (apparent)": "4.9 nM", "detected": "3/3"}

From the AlphaSeq antibody data of Engelhart et al. 2022 (doi:10.1038/s41597-022-01779-4), copy in the FLAb collection.